The target of test [1] is T1, Human IL-17A (Homo sapiens, UniProt Q16552). Nature of the test: IL-17A enzyme-linked immunosorbent assay (competitive ELISA, IL-17A/IL-17Ra receptor-ligand binding). As to conditions: read-out: IC50, inhibitory activity of compounds on human IL-17A, human IL-17A coated plate, human IL-17Ra.
The next test addresses Human IL-17AF (Homo sapiens, UniProt Q16552+Q96PD4). As to the kind of experiment: IL-17AF ELISA (competitive ELISA, IL-17AF/IL-17Ra receptor-ligand binding). As to conditions: read-out: IC50, inhibitory activity of compounds on human IL-17AF, human IL-17AF coated plate, human IL-17Ra.
Test [2] concerns the target T1, Human IL-17A. Nature of the test: Inhibition of human IL-17A protein-induced GROα/CXCL1 production in HT-29 cells. The conditions noted are these: read-out: Inhibitory IC50 of compounds on HT-29 cell GROα/CXCL1, 30 ng/mL human IL-17A protein, 48 h, GROα in supernatant by ELISA kit.

Sequences of proteins named here, by UniProt entry; tags and fusion partners are left off. Residues count along the entry.
UniProt Q16552, 20-155 limits assumed: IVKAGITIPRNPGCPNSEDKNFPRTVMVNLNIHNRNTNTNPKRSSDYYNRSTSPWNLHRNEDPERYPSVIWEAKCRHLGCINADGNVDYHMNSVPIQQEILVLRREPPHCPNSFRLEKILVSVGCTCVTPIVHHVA
UniProt Q16552, 24-155 limits assumed: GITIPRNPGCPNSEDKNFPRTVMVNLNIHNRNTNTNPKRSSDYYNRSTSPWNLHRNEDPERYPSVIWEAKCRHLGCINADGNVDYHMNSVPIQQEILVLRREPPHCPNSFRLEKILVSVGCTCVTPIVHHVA
UniProt Q96PD4, 31-163 limits assumed: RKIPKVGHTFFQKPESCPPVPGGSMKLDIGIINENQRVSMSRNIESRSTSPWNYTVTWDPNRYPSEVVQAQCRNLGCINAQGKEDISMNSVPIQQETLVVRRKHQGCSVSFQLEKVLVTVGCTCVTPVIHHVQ

Bounds are passed on as bounds.

Consider `Cc1[nH]nc2c1-c1cc(Cl)c(NC(=O)[C@@H](NC(=O)c3ccnn3C(C)C)C(C3CC3)C3CC3)cc1COCC2`, for which the IC50 on Human IL-17A [1] was 50 to 150 nM. For the compound `Cc1[nH]nc2c1-c1cnc(NC(=O)[C@@H](NC(=O)OC3CCC3)C(C3CC3)C3CC3)cc1CN(C1CC1)CC2`, the IC50 at Human IL-17A [1] is less than 50 nM; at Human IL-17AF it was 100 to 500 nM; at Human IL-17A [2], 100 to 500 nM. Consider `Cc1[nH]nc2c1-c1ccc(NC(=O)[C@@H](NC(=O)c3ccnn3C(C)C)C(C3CC3)C3CC3)cc1CCOC2`, for which the IC50 at Human IL-17A [1] was in the range of 50 to 150 nM. As to `Cc1[nH]nc2c1-c1ccc(NC(=O)[C@@H](NC(=O)c3ccnn3C(C)C)C(C3CC3)C3CC3)cc1COCC2`, the figures for the IC50 at Human IL-17A [1], at Human IL-17AF and at Human IL-17A [2] were less than 50 nM, less than 100 nM and less than 100 nM, respectively.

Consider `Cc1[nH]nc2c1-c1cc(F)c(NC(=O)C(COC(C)(C)C(F)(F)F)NC(=O)c3ccnn3C(C)C)cc1COCC2` (stereo not drawn), for which, at Human IL-17A [1], the IC50 is less than 50 nM. On to `Cc1[nH]nc2c1-c1cc(F)c(NC(=O)[C@@H](NC(=O)c3ccnn3C(C)C)C(C3CC3)C3CC3)cc1COC(C)(C)C2`, for which the IC50 on Human IL-17A [1] is less than 50 nM; on Human IL-17AF, 100 to 500 nM. Turning to `Cc1[nH]nc2c1-c1cc(F)c(NC(=O)[C@@H](NC(=O)c3ccnn3C(C)C)C(C3CC3)C3CC3)cc1COC(C)C2` (single isomer, unassigned), the IC50 on Human IL-17A [1] is less than 50 nM; on Human IL-17AF it was 100 to 500 nM; on Human IL-17A [2], 100 to 500 nM.

In the case of `Cc1[nH]nc2c1-c1cnc(NC(=O)[C@@H](NC(=O)c3ccnn3C(C)C)C(C3CC3)C3CC3)cc1COCC2`, the IC50 was less than 50 nM on Human IL-17A [1], less than 100 nM at Human IL-17AF and less than 100 nM at Human IL-17A [2].

With `Cc1[nH]nc2c1-c1cc(F)c(NC(=O)[C@@H](NC(=O)c3ccnn3C(C)C(F)F)C(C3CC3)C3CC3)cc1COCC2` (single isomer, unassigned), the IC50 on Human IL-17A [1] was 50 to 150 nM; at Human IL-17AF it was 100 to 500 nM. Take `Cc1[nH]nc2c1-c1cc(F)c(NC(=O)[C@@H](NC(=O)OC3CC3)C(C3CC3)C3CC3)cc1COCC2`: on Human IL-17A [1], the IC50 was less than 50 nM.

With `CCn1nccc1C(=O)NC(C(=O)Nc1ccc2c(c1)COCCc1n[nH]c(C)c1-2)C1CCC(F)(F)CC1` (single isomer, unassigned), the IC50 on Human IL-17A [1] lay in the range of 50 to 150 nM.

The values are drawn from patent US20260258050A1, “IMMUNOMODULATOR” (HITGEN INC., priority 2023, published 2026).
